This note sets out measurements from patent publication US20010010919A1 (priority 1998, published 2001).

In test [1] the target is T1, novel mammalian opioid receptor (LC132, OFQR) (Rattus norvegicus, UniProt P35370).
T1 construct: The entire coding region of the receptor cDNA insert was subcloned into the RcRVS vector; expressed in transfected cells
In kind it is binding.

The target in the next test is T2, OFQR (Rattus norvegicus, UniProt P35370).
T2 construct: The entire coding region of the receptor cDNA insert was subcloned into the RcRVS vector; expressed in transfected cells
Description: Saturation binding of (^125I)-Y14-orphanin FQ to membranes of OFQR transfected CHO cells, Scatchard analysis. As to conditions: Scatchard line abscissa intercept.

Consider `CC[C@]12CCN(CC3CC3)[C@H](C(=O)c3ccc(O)cc31)[C@@H]2C` [ethylketocyclazocine], for which the “specific binding of the radioactively-labeled ligand” value in test [1] was “no specific binding”.

In the test with OFQR, “I-Y14: monoiodo form of the Y14 tyrosine-substituted orphanin FQ peptide, radiolabeled with 125I for binding (FGGFTGARKSARKYANQ; non-natural residues)” had a Bmax of 800 fmol/mg membrane protein.
